{
  "source": "PubChem BioAssay (EPA / NIEHS)",
  "note": "This is a selection; strong and weak results do not stand in their true shares. Inconclusive results are not listed. Activity calls are given as the source filed them. How the source made its calls: active means hit-call score of the fitted dose curve at least 0.9, where 1 is the maximum; inconclusive means response in the unintended direction; inactive means score below 0.9.",
  "data": [
    {"assay": "ACEA_ER_80hr: ACEA Biosciences xCELLigence Real-Time Cell Analysis on Estrogen Receptor Agonism for Proliferation (AID 2282667)", "settings": "T47D proliferation, impedance (xCELLigence), 80 h", "protocol": "ACEA_ER is a cell-based, single-readout assay that uses T47D, a human breast cell line, with measurements taken at 80 hours after chemical dosing in a 96-well plate, although TO2 (mc0.srcf) used a 384-well plate. Differences in plate size can be ignored given data normalization.ACEA_ER_80hr is one of two assay component(s) measured or calculated from the ACEA_ER assay. It is designed to make measurements of real-time cell-growth kinetics, a form of growth reporter, as detected with electrical impedance signals by Real-Time Cell Electrode Sensor (RT-CES) technology.Data from the assay component ACEA_ER_80hr was analyzed into 1 assay endpoint. This assay endpoint, ACEA_ER_80hr_Positive, was analyzed in the positive analysis fitting direction relative to DMSO as the negative control and baseline of activity. Using a type of growth reporter, measures of the cells for gain-of-signal activity can be used to understand the signaling at the pathway-level as they relate to the gene ESR1. Furthermore, this assay endpoint can be referred to as a primary readout, because this assay has produced multiple assay endpoints where this one serves a signaling function. To generalize the intended target to other relatable targets, this assay endpoint is annotated to the nuclear receptor intended target family, where the subfamily is steroidal.\nThe xCELLigence system Multi-E-Plate stations were used to measure the time-dependent response to chemicals. Each compound was tested in an eight-point, 1:4 serial dilution series starting at a maximum final concentration of 100 uM. A maximum starting concentration of 0.5% DMSO was present in the 100 uM chemical samples and was diluted along with the test article dilution series. The screen was performed in biological duplicate using two separate, 96-well, E-Plates 96 for each dilution series (n = 2). Positive controls (MG132 and E2) and a negative control (assay media) were tested in quadruplicate on each testing plate. […] Reference compounds were tested with 8 concentrations with 1:5 serial dilutions. All screening was carried out by ACEA Biosciences, Inc. (San Diego, CA). T-47D cells purchased from ATCC were maintained in RPMI1640 media supplemented with 10% characterized fetal bovine serum (FBS). […] Cells were then detached and seeded in E-Plates 96 in assay medium. After overnight monitoring of growth once every hour, compounds were added to […] cells and remained in the medium until the end of the experiment. Cellular responses were then recorded once every 5 min for the first 5 h, and once every hour for an additional 100 h.", "values": [
      {"smiles": "Cc1ccc([N+](=O)[O-])cc1[N+](=O)[O-]", "outcome": "inactive"},
      {"smiles": "Cc1cccc([N+](=O)[O-])c1[N+](=O)[O-]", "AC50": "active: 7.66 µM"},
      {"smiles": "O=[N+]([O-])c1cccc([N+](=O)[O-])c1", "outcome": "inactive"},
      {"smiles": "Cc1c([N+](=O)[O-])cccc1[N+](=O)[O-]", "outcome": "inactive"},
      {"smiles": "CN(C)CCCl", "outcome": "inactive"},
      {"smiles": "COc1ccc([N+](=O)[O-])cc1[N+](=O)[O-]", "outcome": "inactive"},
      {"smiles": "COP(C)(=O)OC", "outcome": "inactive"},
      {"smiles": "Cc1ccc([N+](=O)[O-])c([N+](=O)[O-])c1", "outcome": "inactive"},
      {"smiles": "O=[N+]([O-])OCC(CO[N+](=O)[O-])(CO[N+](=O)[O-])CO[N+](=O)[O-]", "AC50": "active: 3.13 µM"},
      {"smiles": "CC(C)OP(C)(=O)OC(C)C", "outcome": "inactive"}
    ]}
  ]
}
